Source: PubChem BioAssay AID624034 (National Center for Advancing Translational Sciences (NCATS), 2012)
The entries are a selection whose mix differs from that of the whole data set. Records with an inconclusive call do not appear. Calls of active or inactive are those of the source. Calls come from the whole dose curve; as a rule, active = well fitted inhibition curve with a large enough effect; inconclusive = small, poorly fitted or top-dose-only effect; inactive = flat fitted curve, though single readings scatter.

Amino acid sequences for entries named in this document (tags omitted). A change or cut given only in a name is not applied to a line headed by its entry.
UniProt Q9HAZ1: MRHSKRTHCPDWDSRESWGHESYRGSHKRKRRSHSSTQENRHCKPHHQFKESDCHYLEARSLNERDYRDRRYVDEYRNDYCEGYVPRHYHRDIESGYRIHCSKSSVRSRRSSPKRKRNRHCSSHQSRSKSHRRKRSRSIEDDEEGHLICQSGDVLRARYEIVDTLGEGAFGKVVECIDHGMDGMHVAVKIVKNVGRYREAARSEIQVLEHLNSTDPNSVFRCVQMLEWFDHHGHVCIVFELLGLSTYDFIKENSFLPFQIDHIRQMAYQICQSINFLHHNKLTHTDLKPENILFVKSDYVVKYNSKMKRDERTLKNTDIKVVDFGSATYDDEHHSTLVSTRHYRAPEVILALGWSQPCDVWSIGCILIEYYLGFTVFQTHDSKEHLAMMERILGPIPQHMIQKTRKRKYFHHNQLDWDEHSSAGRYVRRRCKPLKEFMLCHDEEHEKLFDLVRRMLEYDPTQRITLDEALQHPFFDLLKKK

The molecules below were run against Dual specificity protein kinase CLK4 (Homo sapiens) (UniProt Q9HAZ1) (assay: Reaction Biology data for inhibitors of CLK4: Probe SAR). Conditions: Reaction Biology CLK4 kinase assay, 10 uM ATP.
Text: Alternative splicing of pre-mRNAs plays a major role in the regulation of eukaryotic gene expression. Alternative splicing is now thought to be one of the primary reasons for the complexity of higher organisms leading to an average of three protein isoforms per gene. Aberrant splicing can lead to a number of diseases and is known to play a role in rare genetic diseases such as progeria syndrome. Hutchinson-Gilford Progeria Syndrome (HGPS) is a pediatric premature aging disease caused by a spontaneous mutation in the lamin A/C (LMNA) gene due to a single point mutation in the lamin A gene effecting 1 in 4 million people. To identify both specific splicing modulators of the lamin A gene as well as general splicing modulators, a cell-based HTS assay was developed using a minigene reporter system (AIDs, 1459 & 1487). […] This AID summarizes the characterization of lead compounds in Clk4. NIH Molecular Libraries Probe Production Centers Network [MLPCN] NIH Chemical Genomics Center [NCGC] MLPCN Grant: MH084827 Assay Submitter (PI): Tom Misteli
Compound IC50s were determined at Reaction Biology (http://www.reactionbiology.com) with ten concentration points starting at 10 uM in the assay using a 3-fold dilution series. The control compound staurosporine was also tested in the 10-dose IC50 mode with the same 3-fold serial dilution, again starting at 10 uM. […]

SMILES | Potency
c1cncc(CNc2ncncc2-c2ccc3c(c2)OCO3)c1 | active: 7.54 µM
